Measured affinities in a library of Ab-14 heavy chain variants

Binding partner: SARS-CoV-2 spike HR2 peptide, sequence PDVDLGDISGINAS.

The variants keep the light chain, the linker and the frameworks of Ab-14 (scFv order VH, a 15-residue (Gly4Ser)3 linker, VL).
VH: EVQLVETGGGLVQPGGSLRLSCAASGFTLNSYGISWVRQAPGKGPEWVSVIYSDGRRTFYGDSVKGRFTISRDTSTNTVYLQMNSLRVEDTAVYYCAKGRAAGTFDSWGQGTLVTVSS
VL: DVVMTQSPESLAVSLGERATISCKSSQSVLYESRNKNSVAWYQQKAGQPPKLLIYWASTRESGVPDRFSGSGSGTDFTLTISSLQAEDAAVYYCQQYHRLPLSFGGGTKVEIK

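Phage display of a naive human antibody library on the peptide gave the parent. AAYL49 was designed without a model: most single CDR substitutions and a random sample of double and triple ones. In AlphaSeq, yeast of one mating type display the scFv and yeast of the other type display the target. Mating (16 h, 30 °C) was followed by selection of diploids and sequencing of their barcodes. Scores were corrected for input abundance and mapped to Kd with protein pairs of known affinity run in the same pool. Each pool was mated in three replicate cultures.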

The parent's heavy chain CDRs are GFTLNSYGIS, VIYSDGRRTFYGDSVK, GRAAGTFDS; each variant's own CDRs replace them letter for letter.
Every variant below is changed at F105 of the VH (sequential numbering).
The Kd shown is the geometric mean over detected replicates; a lower Kd is a better binder.
"nd" marks a missing value. The strain was present, yet no cells mated with the target were sequenced in any replicate, which points to weak or no binding.
Parent in this assay: reference entry 4.4 nM, copy in this library 13 µM (one replicate of three).

For GFTLNSYGIS | VILSDGRRTFYGDSVK | GRAVGTYDS, the assay gave nd (0 of 3 replicates; controls 0 of 9).
For GFTLNSYGIS | VIYSDGRRTFYGDSVH | GRAAGTKDY, the assay gave nd (0 of 3 replicates; controls 1 of 9).
For GFTLNSYGIS | VIYSDGRRTFYGDSGK | GRAAGTSDS, the assay gave 5.4 µM (1 of 3 replicates; controls 2 of 9).
For GFTLNSYGIS | VIYSDGRRTFYGRSVK | GRAADTPDS, the assay gave nd (0 of 3 replicates; controls 0 of 9).
For GFTLNSYGIS | VIYSFGRRTFYGDSVK | GRAIGTEDS, the assay gave nd (0 of 3 replicates; controls 0 of 9).
For GFTLNSYGIS | VLYSDGKRTFYGDSVK | GRAAGTWDS, the assay gave 14 nM (3 of 3 replicates; controls 2 of 9).
For GFTLNSYGIS | VIVSDGRRGFYGDSVK | GRAAGTRDS, the assay gave 25 µM (2 of 3 replicates; controls 0 of 9).
For GFTLNSYGRS | VIVSDGRRTFYGDSVK | GRAAGTMDS, the assay gave nd (0 of 3 replicates; controls 1 of 9).
For GFTLNSYGHS | VIFSDGRRTFYGDSVK | GRAAGTEDS, the assay gave nd (0 of 3 replicates; controls 2 of 9).
For GFTLNSYGIS | VIYSDGRRTFYGDSVK | GRAAGTNDT, the assay gave 16 nM (3 of 3 replicates; controls 1 of 9).
For GFTLNEYGIS | VIYSDGRRTFYGDSVK | GRAAGTYDS, the assay gave 4.1 nM (3 of 3 replicates; controls 2 of 9).
For GFTLNSYGIA | VIMSDGRRTFYGDSVK | GRAAGTKDS, the assay gave nd (0 of 3 replicates; controls 0 of 9).
For GFTLNSYGIS | VIYSDGRRGFYGDSVK | GRAARTYDS, the assay gave nd (0 of 3 replicates; controls 0 of 9).
For GFTLNSYGIP | VIYSDGRRTFYGDSVK | GRAAGRDDS, the assay gave 2.5 µM (1 of 3 replicates; controls 1 of 9).
For GFTLNSYGIS | VIYSDGRRTNYGDSVK | GRHAGTDDS, the assay gave 51 µM (2 of 3 replicates; controls 3 of 9).
For GYTLNSYGIS | VIYSDGRYTFYGDSVK | GRAAGTYDS, the assay gave nd (0 of 3 replicates; controls 0 of 9).
For GFTWNSYGIS | VIYSDGRRNFYGDSVK | GRAAGTADS, the assay gave 49 µM (2 of 3 replicates; controls 6 of 9).
For GFALNSYGIS | VIISDGRRTFYGDSVK | GRAAGTKDS, the assay gave nd (0 of 3 replicates; controls 0 of 9).
For GFTLNSYGIS | VIYSDGRRTFPGDSVK | GRAAGTTDS, the assay gave 6.2 µM (1 of 3 replicates; controls 2 of 9).
For GFTLNSYGIS | LIVSDGRRTFYGDSVK | GRAAGTKDS, the assay gave 1.2 mM (1 of 3 replicates; controls 4 of 9).
For GFTLNSYGIS | VIYSDGRRTFTGDSVT | GRAAGTKDS, the assay gave nd (0 of 3 replicates; controls 1 of 9).
For GFTLNSYGIT | VIYSDGIRTFYGDSVK | GRAAGTHDS, the assay gave 54 µM (3 of 3 replicates; controls 6 of 9).
For GFTLNSYGIS | VIYSDGRRTFYGCSRK | GRAAGTQDS, the assay gave 2.8 mM (1 of 3 replicates; controls 2 of 9).
For GITLNSYGIS | VIYSDGRRTFYGDTVK | GRAAGTGDS, the assay gave 260 nM (1 of 3 replicates; controls 0 of 9).
For GWTLNSYGIS | VIYSDGRRTFYGFSVK | GRAAGTWDS, the assay gave nd (0 of 3 replicates; controls 0 of 9).
For GFTLNSYGIS | VIYSDGWRTFYGDSVK | GDAAGTRDS, the assay gave 1.5 µM (3 of 3 replicates; controls 2 of 9).
For GFTLNSYGIS | WIYSDGRRTFYGFSVK | GRAAGTADS, the assay gave nd (0 of 3 replicates; controls 0 of 9).
For KFTLNSYGIS | VIYSDGRRTFYGDSVK | GRAAGTTDS, the assay gave nd (0 of 3 replicates; controls 0 of 9).
For GFTLNRYGIS | VIYSDGRRTFYGDSVK | GRAAWTPDS, the assay gave nd (0 of 3 replicates; controls 0 of 9).
For GFTLNSYGIS | QIYSDGRRTFYGDSVK | GRAAGTRDM, the assay gave 10 µM (1 of 3 replicates; controls 1 of 9).
For GFTLNSYGIS | VIYSDQRRTFYGDGVK | GRAAGTNDS, the assay gave 980 nM (1 of 3 replicates; controls 0 of 9).
For GFTLNSYGIK | VIYSDGRRTFYGDSVK | GRAAYTQDS, the assay gave 1.6 µM (1 of 3 replicates; controls 1 of 9).
For GFTLNSYGES | VIYSDGRRTFYGASVK | GRAAGTCDS, the assay gave nd (0 of 3 replicates; controls 1 of 9).
For GFTLNSYYIS | VIYSDGRRTFYGDSVQ | GRAAGTYDS, the assay gave 230 µM (1 of 3 replicates; controls 0 of 9).
For GFTLNSYGIS | VIYSDGRRTFYGWKVK | GRAAGTNDS, the assay gave nd (0 of 3 replicates; controls 2 of 9).
For GITLNSYEIS | VIYSDGRRTFYGDSVK | GRAAGTYDS, the assay gave nd (0 of 3 replicates; controls 0 of 9).
For GLTLNSYGIS | VIYSDGERTFYGDSVK | GRAAGTYDS, the assay gave nd (0 of 3 replicates; controls 0 of 9).

2 of these entries, quoted again:

CDR-H1	CDR-H2	CDR-H3	Kd	replicates with signal	empty controls
GFTLNSYGRS	VIVSDGRRTFYGDSVK	GRAAGTMDS	nd	0 of 3	1 of 9
GFTLNSYGIS	VIYSFGRRTFYGDSVK	GRAIGTEDS	nd	0 of 3	0 of 9

Empty control strains, which show no peptide, gave a signal in 15% of pairings with library AAYL49; the median was 11 µM and 95% of these signals were weaker than 680 nM. No background was subtracted. For each scFv, signals with the empty controls are counted beside the result.

Source: Engelhart et al. 2022 (doi:10.1038/s41597-022-01779-4), MIT Lincoln Laboratory and A-Alpha Bio; data file from the FLAb repository.